# From patent US7888385B2, “Airway alkalinization as therapy for airway diseases” (priority 2002, dated 2011)
# Tested on: mycobacteria
# Type: in vivo, human
# Details: pH3 by nebulizer four times daily for 9 months, low-glutamine diet
smiles,measurement,value
CC(=O)O [acetic acid],mycobacteria in respiratory secretions,can no longer be identified
